# Laboratory results published in ChEMBL document CHEMBL4304783, “Discovery of a Novel Selective Dual Peroxisome Proliferator-Activated Receptor α/δ Agonist for the Treatment of Primary Biliary Cirrhosis” (ACS Med Chem Lett, 2019).
# How the values were obtained:
# [1] = organism: Homo sapiens; experiment: Selectivity index, ratio of IC50 of human recombinant GST-tagged FXR LBD (193-472 residues) expressed in baculovirus infected insect cells to EC50 of PPARdelta (unknown origin)
# [2] = organism: Homo sapiens; experiment: Selectivity index, ratio of IC50 of human recombinant GST-tagged FXR LBD (193-472 residues) expressed in baculovirus infected insect cells to EC50 of PPARalpha (unknown origin)
compound,measurement,setting,value
Cc1cc(Cc2cc(-c3ccc(Br)cc3)on2)cc(C)c1OC(C)(C)C(=O)O,Ratio IC50/EC50,[1],> 6000
same,Ratio IC50/EC50,[2],> 6000
